The values that follow are results of earlier work, collected in patent US20250003952A1, “SENOLYTIC DRUG SCREENING METHOD AND SENOLYTIC DRUG” (KYOTO UNIVERSITY, priority 2021, published 2025).

Chains of the proteins cited; added tags and fusions are not shown.
UniProt Q00987, whole entry: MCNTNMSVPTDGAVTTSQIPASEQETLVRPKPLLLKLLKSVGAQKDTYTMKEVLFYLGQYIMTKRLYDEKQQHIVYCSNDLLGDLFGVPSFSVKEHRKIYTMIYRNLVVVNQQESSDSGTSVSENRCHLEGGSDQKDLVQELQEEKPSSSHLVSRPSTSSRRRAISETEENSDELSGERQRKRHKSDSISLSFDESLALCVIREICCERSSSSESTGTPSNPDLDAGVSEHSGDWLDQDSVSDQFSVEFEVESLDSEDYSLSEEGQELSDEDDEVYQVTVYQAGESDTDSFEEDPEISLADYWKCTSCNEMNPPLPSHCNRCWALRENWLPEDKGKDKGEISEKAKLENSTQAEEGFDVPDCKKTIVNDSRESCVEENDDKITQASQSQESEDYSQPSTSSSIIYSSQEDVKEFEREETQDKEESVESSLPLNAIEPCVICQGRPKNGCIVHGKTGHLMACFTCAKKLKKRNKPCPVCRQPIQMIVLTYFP

This data set deals with p53-Mdm2 binding (Homo sapiens, UniProt Q00987). The following applies: Vassilev et al., 2004; cited from earlier work.

As to `COc1ccc(C2=N[C@H](c3ccc(Cl)cc3)[C@H](c3ccc(Cl)cc3)N2C(=O)N2CCNC(=O)C2)c(OC(C)C)c1` [nutlin 3b], the “p53-Mdm2 binding inhibition relative to nutlin 3a” value is given as “about 1/100”. On to `COc1ccc(C2=N[C@@H](c3ccc(Cl)cc3)[C@@H](c3ccc(Cl)cc3)N2C(=O)N2CCNC(=O)C2)c(OC(C)C)c1` [nutlin 3a], for which the p53 activation result is “activate p53”.
